These results are taken from patent publication US6869783B1, “Method for producing chiral carboxylic acids from nitriles with the assistance of a nitrilase or microoganisms which contain a gene for the nitrilase” (BASF Aktiengesellschaft, priority 1998, dated 2005).

The assay concerns nitrilase 1650. Put plainly: Conversion of various nitriles with nitrilase 1650 (NH4 ions in supernatant, microtiter plate). Type of assay: biochemical, Alcaligenes faecalis 1650. On the set-up: Activity: unit not given here. The settings on record: 10 mM substrate, 2 g/l dry biomass, 30° C, 2 hours, pH 7.2.

This is a selection: effects in other tests are not listed, and their absence says nothing.

With 4-flourobenzyl cyanide, the “% conversion” value came to 100% and the Activity is recorded as 9.2. In addition, the “μmol/l (amount of NH4 ions produced in the supernatant)” value (average of a microtiter plate row) turned out to be 2222.9 µmol/L.
